From PMC3818031, “Structures of Saccharomyces cerevisiae D-arabinose dehydrogenase Ara1 and its complex with NADPH: implications for cofactor-assisted substrate recognition” (Acta Crystallographica Section F: Structural Biology and …, 2013)

Target: Saccharomyces cerevisiae D-arabinose dehydrogenase Ara1 (S. cerevisiae) (UniProt P38115)
Test: SEC; gel-filtration chromatography, Ara1 in solution

## Saccharomyces cerevisiae D-arabinose dehydrogenase Ara1 (from UniProt P38115 1-344) (enzyme)
  stoichiometry N: 2
